Ki data for one compound are collected here from ChEMBL document CHEMBL1136593, “Design, synthesis, and discovery of 5-piperazinyl-1,2,6,7-tetrahydro-5H-azepino[3,2,1-hi]indol-4-one derivatives: a novel series of mixed dopamine D2/D4 receptor antagonist” (Bioorg Med Chem Lett, 2003).

The chains behind the UniProt entries cited, without tags or fusion partners.
UniProt P14416, whole entry: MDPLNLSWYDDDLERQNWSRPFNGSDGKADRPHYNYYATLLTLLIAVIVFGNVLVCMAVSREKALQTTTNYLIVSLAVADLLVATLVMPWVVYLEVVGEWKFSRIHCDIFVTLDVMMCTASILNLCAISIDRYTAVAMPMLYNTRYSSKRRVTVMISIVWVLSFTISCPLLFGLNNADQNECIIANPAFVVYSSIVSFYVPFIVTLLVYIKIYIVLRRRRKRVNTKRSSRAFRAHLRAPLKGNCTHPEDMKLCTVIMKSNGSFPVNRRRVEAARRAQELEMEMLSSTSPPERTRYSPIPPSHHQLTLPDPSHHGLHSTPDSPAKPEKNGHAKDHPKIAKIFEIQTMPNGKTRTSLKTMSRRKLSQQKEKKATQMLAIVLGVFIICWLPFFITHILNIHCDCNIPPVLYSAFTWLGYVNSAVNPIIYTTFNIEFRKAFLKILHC

As usually defined, the Ki is the equilibrium dissociation constant of an inhibitor or competing ligand from its target. High values mean a looser hold on the target, low ones a stronger hold on the target.

In the experiment the target is D(2) dopamine receptor (Homo sapiens, UniProt P14416). The experiment can be described thus: Displacement of [3H]-YM 09151 from D2 receptor.

Regarding `CC1(C)Cc2cccc3c2N1C(=O)C(N1CCN(Cc2ccc(Cl)cc2)CC1)CC3` (stereo unspecified), the Ki was determined as 201 nM.
